From patent publication US5017577A, “Methods for treating viral infection” (Burroughs Wellcome Co., priority 1989, dated 1991) come the findings set out here.

Protein sequences, listed by entry. Tags and fused reporters are not part of them.
UniProt P47745, whole entry: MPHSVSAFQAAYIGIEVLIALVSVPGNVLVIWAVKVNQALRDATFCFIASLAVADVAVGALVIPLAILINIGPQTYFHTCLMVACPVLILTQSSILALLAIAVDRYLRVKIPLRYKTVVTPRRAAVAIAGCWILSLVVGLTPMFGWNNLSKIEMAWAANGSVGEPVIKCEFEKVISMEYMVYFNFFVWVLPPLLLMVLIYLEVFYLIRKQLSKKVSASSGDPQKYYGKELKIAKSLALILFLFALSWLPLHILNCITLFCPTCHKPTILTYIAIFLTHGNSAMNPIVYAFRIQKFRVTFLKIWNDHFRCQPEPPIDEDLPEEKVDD

The target of this assay is T1, adenosine (purine) receptors (Cavia porcellus, UniProt P47745).
T1 construct: Ilea were removed from sacrificed guinea pigs; from tissue; host or cells: guinea pig ileum
Put plainly: Guinea pig ileum twitch test: purine receptor antagonism against 2-chloroadenosine (Schild regression). The following applies: agonist 2-chloroadenosine. How it is done:
Accordingly, a representative number of compounds of the present invention were tested for their ability to antagonise the purine receptors using the guinea pig ileum test system.
Ilea were removed from sacrificed guinea pigs and placed in organ baths containing oxygenated Krebs-Henseleit buffer. After equilibration, the ilea were stimulated to contract (twitch contraction) using an electrical field-stimulus of 0.1 Hz, 0.05 ms duration and maximal voltage. Under these conditions, the twitch contraction results from the release of acetylcholine.
Concentration response curves to the purine agonist, 2-chloroadenosine, were determined first in the absence and then in the presnce of multiple concentrations of the compounds of the invention. One concentration of each compound was used per tissue. Quantification of purine receptor antagonism was accomplished using the Schild regression technique, i.e. plots of log (dose-ratio-l) vs log compound concentration, and the pA2 determined by regression of the data points to the x-intercept, where log (dose-ratio-l) is zero.

Take `Cn1c(=O)c2[nH]cnc2n(C)c1=O` [THEOPHYLLINE, 1,3-dimethylxanthine, reference compound]: the “pA2 guinea pig ileum (slope): slope of Schild regression” value worked out at 1.1.
